## Binding of CDR-mutated scFvs to a peptide of the spike HR2 region

Target peptide (SARS-CoV-2 spike, HR2 region): PDVDLGDISGINAS

Parent: Ab-14, a human scFv built as VH, three GGGGS repeats, VL. Only the CDRs of the light chain vary.
VH: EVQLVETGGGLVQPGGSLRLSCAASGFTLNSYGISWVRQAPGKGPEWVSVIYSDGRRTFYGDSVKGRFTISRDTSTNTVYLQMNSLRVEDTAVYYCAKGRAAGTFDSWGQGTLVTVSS
VL: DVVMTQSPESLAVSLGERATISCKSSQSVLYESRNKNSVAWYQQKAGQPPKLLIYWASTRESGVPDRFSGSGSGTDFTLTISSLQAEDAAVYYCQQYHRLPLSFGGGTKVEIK

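Phage display of a naive human antibody library on the peptide gave the parent. This is the validation round: designs drawn from the data on random variants, tested in the same kind of assay. Group labels follow the data file (En: ensemble of fine-tuned language models; GP: Gaussian process model; HC: hill climbing; Gen: genetic algorithm; Gibbs: Gibbs sampling; a sequence that several methods proposed may carry one label only). The scFvs were displayed on barcoded MATa yeast, the peptide on MATalpha yeast. Pairs that bind mate more often; barcode pairs of the diploids are counted by sequencing. A regression on co-assayed BCL2-family reference pairs converts the normalised counts of each replicate to an apparent Kd. The assay was run in six technical replicates.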

Each variant is given by its three light chain CDRs, as the data file delimits them; those of the parent are KSSQSVLYESRNKNSVA, WASTRES, QQYHRLPLS.
Variants here have more than six changes.
Numbers give log10(Kd / nM), so 0 is 1 nM and 3 is 1 µM. Smaller is tighter.
"nd" means that the variant was in the library but no mating with the target was seen in that replicate; the authors take this as a sign of poor binding, and no number exists.
The parent sequence was in this pool as ten entries: three were never detected, three once, and four in most replicates, with averages from 0.34 to 2.37.
The authors' rule: three or more of the six replicates give a measured affinity, fewer mean a poor binder.
A sequence measured in both rounds can read differently, since the two assays cover different ranges.
Empty control strains, which show no peptide, gave a signal in 4% of pairings with all light chain designs; the median was 2.64 and 95% of these signals were weaker than 1.59. No background was subtracted.

Variant KLPQSTMQESVSKNSVA / ELSTRGQ / QQYHRLPLS [En_HC] showed 0.61, 0.61, 0.56, 0.58, 0.44, 0.63.
Variant KLSMSVLMEQRNKNSVA / SANTREE / QQYHRLPLS [GP_Gibbs] showed -0.24, -0.44, -0.31, -0.43, -0.54, -0.16.
Variant ALTSDLEVEQVNARNVA / NAHAVVS / QQYQHLPLS [En_Gibbs] showed -0.18, -0.39, -0.26, -0.55, -0.45, -0.27.
Variant MISNVMNTLTRLGNNVA / DLAERED / QQYFRLPLS [En_Gen] showed 1.56, 3.19, 2.24, 0.94, 1.68, 2.79.
Variant KLMSVTGTEKVMGNNVA / EMETREK / QQYNRLPLA [En_Gen] showed 0.19, 0.42, -0.30, 0.23, -0.21, 0.18.
Variant KIGGVTNGIMRSKNSVA / EQSTRED / QQYDRLPLS [En_HC] showed 0.09, 0.31, 0.28, 0.61, 0.27, 0.45.
Variant KLAMYLEMWARTKHAVA / DANHKTS / QQYNRLPIS [En_Gibbs] showed 0.04, 0.82, -0.14, 0.17, -0.20, 0.09.
Variant KVSPSWLYEDRNWNSVA / QASQRNS / QQYHRLPLS [GP_Gibbs] showed 0.35, 0.21, -0.01, 0.23, 0.04, 0.27.
Variant TISMSMNWLTFNKNNIA / EESTREE / QQYDRLPLS [En_HC] showed nd, nd, nd, nd, nd, nd.
Variant MFSQSVMYGSRYRNSVA / QTSTRES / QQYDRLPLS [En_HC] showed 0.74, 0.34, 0.48, 0.66, 0.46, 0.51.
Variant KISMLTLYESVNKNSVA / EMSTRPS / QSYHRLPLS [En_HC] showed 2.40, 1.36, 1.13, 2.05, 2.23, 2.10.
Variant MISQVMNTLTRHGNNVA / DLENRED / QQYFRLPLS [En_Gen] showed 1.83, 0.42, 1.47, 1.94, 0.73, 1.63.
Variant KLSVSMLLEQFHKNNVA / ENSTREE / QHYHRLPLS [En_HC] showed nd, nd, nd, nd, nd, nd.
Variant HISGFMKTLSAHINNVA / DMTNRED / QQYDRLPLS [En_Gen] showed 0.38, 0.36, 0.30, 0.09, 0.40, 0.51.
Variant KLDQSQLYESRNKQSVA / NASQRCS / QQYHRLPLS [GP_Gibbs] showed -0.16, 0.17, -0.10, -0.29, 0.00, 0.05.
Variant HLEQSSPYEQRNKNSVA / NASLRCS / QQYHRLPLS [GP_Gibbs] showed 0.79, 0.38, 0.42, 0.41, 0.46, 0.48.
Variant KLSISYLFESQEKNSIA / ENSTRER / QHYHRLPLS [En_HC] showed 1.90, nd, nd, nd, nd, nd.
Variant KLQMLELYEGRWKNSVA / SASTREE / QQYHRLPLS [GP_Gibbs] showed 0.31, 0.11, 0.29, -0.04, 0.12, 0.30.
Variant KISQMVRVGMTHGNSIA / EEATRAK / QQYHRLPLA [En_Gen] showed 1.64, 1.43, 1.47, 1.49, 1.91, 1.48.
Variant KLYASTMLETHDKNSIA / DLSTRGN / QQYHRLPLS [En_HC] showed 0.94, 0.80, 0.69, 0.34, 0.44, 0.65.
Variant TMNHELIQDDPMMNNVA / DGSLKTA / QQYYRLPLS [En_Gibbs] showed 0.98, 1.62, 0.39, 0.90, 0.69, 0.77.
Variant KQEQSVMGESRWKNSVA / NASTRMS / QQYHRLPLS [GP_Gibbs] showed 0.72, 0.36, 0.35, -0.20, 0.60, 0.73.
Variant TLSQMSGLEAVKHNSVA / ENSTREN / QQYDRLPLS [En_Gen] showed nd, nd, nd, 1.59, 2.14, 1.81.
Variant SIKHGEAKNQKGDDNVA / NEAAKIV / QQYYRLPLS [En_Gibbs] showed nd, 1.53, nd, 1.32, 2.27, 1.32.
Variant TISMFMDNMSHNRNNVA / DTSTLGD / QSYDRLPLS [En_Gen] showed 1.21, 1.10, 0.70, 1.14, 1.34, 1.27.
Variant MISQIYNMGSFAINSVA / QASERNE / QQYDRLPLM [En_Gen] showed 0.85, 0.89, 0.36, 1.08, nd, 1.32.
Variant KLDQSWWGEWRNKNSVA / HASTREQ / QDYHRLPLS [GP_Gibbs] showed 0.37, 0.29, 0.62, 0.76, 0.35, 0.31.
Variant KLSMLTRFQQNAKNNIA / EMNRREE / QQYHRLPLS [En_HC] showed 0.13, 0.03, 0.15, -0.24, 0.23, -0.02.
Variant MISQLYNMGSFAINSVA / QASERNT / QQYDRLPLI [En_Gen] showed 0.85, 0.84, 1.08, 0.45, 0.96, 1.42.
Variant KLEPSEEEESRNKNSVA / SASTRES / QQYHRLPLS [GP_Gibbs] showed -0.35, -0.58, -0.59, -0.63, -0.51, -0.49.
Variant KLLQTVANGRYNRNNVA / HMTMRED / QQYFRLPLS [En_HC] showed nd, nd, 1.06, nd, 1.77, 2.09.

The first 3 entries again:

CDR-L1,CDR-L2,CDR-L3,group,"log10 Kd, replicates"
KLPQSTMQESVSKNSVA,ELSTRGQ,QQYHRLPLS,En_HC,"0.61, 0.61, 0.56, 0.58, 0.44, 0.63"
KLSMSVLMEQRNKNSVA,SANTREE,QQYHRLPLS,GP_Gibbs,"-0.24, -0.44, -0.31, -0.43, -0.54, -0.16"
ALTSDLEVEQVNARNVA,NAHAVVS,QQYQHLPLS,En_Gibbs,"-0.18, -0.39, -0.26, -0.55, -0.45, -0.27"

Reference: Li et al. 2023, doi:10.1038/s41467-023-39022-2. File: FLAb, binding data.